US8114968

The chains behind the UniProt entries cited, without tags or fusion partners. Residues count along the entry.
UniProt P39900, 106-470 limits assumed: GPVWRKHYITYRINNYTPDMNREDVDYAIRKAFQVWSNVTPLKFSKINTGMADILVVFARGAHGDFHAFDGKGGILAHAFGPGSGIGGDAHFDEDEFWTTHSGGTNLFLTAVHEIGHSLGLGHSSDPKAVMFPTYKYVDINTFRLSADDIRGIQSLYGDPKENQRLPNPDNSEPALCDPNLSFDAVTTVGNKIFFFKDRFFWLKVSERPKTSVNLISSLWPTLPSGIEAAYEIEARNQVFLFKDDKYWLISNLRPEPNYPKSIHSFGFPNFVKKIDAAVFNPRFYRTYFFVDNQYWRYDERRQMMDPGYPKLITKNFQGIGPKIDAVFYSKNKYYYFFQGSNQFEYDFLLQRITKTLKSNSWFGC

Molecular target: human MMP-12 (UniProt P39900)
Test: cell-based or functional assay

% of activity left with 100 nM in assay 04 Oct. 2006: 68.9%
% of activity left with 100 nM in assay 29 Aug. 2006: 65.5%
Substance: 539B-M0006-B10 (Fab)
